Measurements from patent US20090163549A1, “Pharmaceutical Composition Comprising an Amide Derivative” (priority 2005, published 2009).

The chains behind the UniProt entries cited, without tags or fusion partners.
UniProt Q8NER1, whole entry: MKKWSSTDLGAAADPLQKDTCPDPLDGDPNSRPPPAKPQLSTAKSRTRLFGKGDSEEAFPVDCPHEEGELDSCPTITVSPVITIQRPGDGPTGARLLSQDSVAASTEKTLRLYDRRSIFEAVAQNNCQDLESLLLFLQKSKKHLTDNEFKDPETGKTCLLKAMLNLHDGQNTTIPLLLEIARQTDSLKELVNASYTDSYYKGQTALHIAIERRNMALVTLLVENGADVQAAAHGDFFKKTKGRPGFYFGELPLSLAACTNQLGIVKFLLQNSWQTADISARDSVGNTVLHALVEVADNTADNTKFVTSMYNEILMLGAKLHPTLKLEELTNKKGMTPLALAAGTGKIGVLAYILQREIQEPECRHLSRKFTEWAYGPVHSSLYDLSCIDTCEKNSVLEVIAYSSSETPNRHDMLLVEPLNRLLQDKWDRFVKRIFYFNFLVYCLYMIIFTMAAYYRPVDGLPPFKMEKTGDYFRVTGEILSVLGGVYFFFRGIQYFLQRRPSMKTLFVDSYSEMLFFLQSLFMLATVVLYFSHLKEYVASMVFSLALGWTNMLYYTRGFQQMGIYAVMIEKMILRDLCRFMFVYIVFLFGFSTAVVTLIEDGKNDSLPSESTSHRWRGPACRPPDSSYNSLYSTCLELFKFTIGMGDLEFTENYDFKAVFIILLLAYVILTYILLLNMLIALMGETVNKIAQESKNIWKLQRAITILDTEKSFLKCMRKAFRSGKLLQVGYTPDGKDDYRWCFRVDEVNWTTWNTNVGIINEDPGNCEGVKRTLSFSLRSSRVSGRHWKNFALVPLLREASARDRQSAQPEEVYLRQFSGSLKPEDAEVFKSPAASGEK

Target: human TRPV1 receptors (Homo sapiens, UniProt Q8NER1)
Experiment: Inhibition of capsaicin-stimulated Ca2+ influx (Fluo-3, FDSS-3000) in CHO-K1 cells stably expressing human TRPV1 receptors
Details: CHO-K1 cells transfected with human TRPV1; capsaicin stimulation; Fluo-3 fluorescence
Experimental: CHO-K1 cells were transfected with human TRPV1 receptors and a cell culture stably expressing the receptor was seeded on a medium of alpha-MEM containing FBS(10%), HEPES (20 mM), geneticin (1 mg/mL) and antibiotic-antimycotic mixed solution(1%) in 96-well plates, and incubated at 37° C. and 5% CO2 for 2-3 days.
The medium was then substituted with Lording Buffer (20 mM HEPES, 115 mM NaCl, 5.4 mM KCl 0.8 mM MgCl2, 1.8 mM CaCl2, 13.8 mM D-glucose, 2.5 mM probenecid, pH 7.4) containing Fluo-3 AM (5 μM) and incubated at 37° C. and 5% CO2 for 1 hour. The test compounds were diluted to different concentrations and added to the plates after the incubated culture was washed with Wash Buffer (20 mM HEPES, 115 mM NaCl, 5.4 mM KCl 0.8 mM MgCl2, 5.0 mM CaCl2, 13.8 mM D-glucose, 2.5 mM probenecid, 0.1% BSA, pH 7.4) and placed at room temperature for 15 minutes.
The plate was set up in Functional Drug Screening System(FDSS)-3000(Hamamatsu Photonics K.K.) and amounts of Ca^2+ influx before and after capsaicin-stimulation were measured through changes in the fluorescence intensity of Fluo-3.
An inhibitory activity was evaluated by measuring fluorescence intensity in the presence of various concentrations of the test compounds and calculating their % inhibition on the basis that the maximum fluorescence intensity is 100% inhibition when stimulated by Wash Buffer, and 0% inhibition when stimulated by capsaicin
Data analysis and calculation of IC50 values were performed with Excel(Microsoft Corporation) and XLfit(idbs).

SMILES	pIC50
CC(C)(C)c1ccc(NC(=O)c2ccc(C3=NCCS3)nc2)cc1	7.31
CC(C)(C)c1cc(NC(=O)c2ccc(C3=NCCS3)cc2)no1	6.80
CC(C)(C)c1ccc(NC(=O)c2ccc(C3=NCCO3)cc2)cc1	7.41

pIC50: −log10 of the molar value.
